Results from PubChem BioAssay AID720511 (Broad Institute, 2013).
The entries are a selection whose mix differs from that of the whole data set. Calls of active or inactive are those of the source.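 The calls were made as follows: active = mean added fluorescence quench of at least 8% versus neutral control, with both replicates also reaching 8%; inconclusive = only one of the mean or replicate conditions met; inactive = mean below 8% and not both replicates reaching 8%.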

Test: F508del CFTR correction, initial screen, CFBE line, single point (AID 720511);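 also: cells transiently co-express mutant CFTR-F508del with the halide-sensitive YFP; corrector assay measuring rescue of mutant channel to the surface after 24 h compound exposure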
Conditions: CFBE cells, YFP halide quenching, at 7.58 µM, hits give high values, % fluorescence drop versus neutral controls, stimulated with forskolin plus potentiator P3

Row | Compound | activity (quench increase)
1 | O=C(Nc1cc([As](=O)(O)O)ccc1O)c1ccccc1 | inactive: -3.6%
2 | O=P1(N(CCCl)CCCl)OCCCS1 (stereo not given) | inactive: -1.36%
3 | O=C(O)CNc1ccc([As](=O)(O)O)cc1 | inactive: 0.418%
4 | COC(=O)C1(C)COP(=O)(Nc2ccccc2)OC1 (stereo not given) | inactive: 1.67%
5 | O=[N+]([O-])c1cccc(NC2=NCC(CBr)S2)c1 (stereo not given) | inactive: 2.13%
6 | O=[N+]([O-])c1ncn(CCn2ncnc2[N+](=O)[O-])n1 | inactive: -1.83%
7 | CC(C)(C)C(=O)NC(Sc1ccncn1)C(Cl)(Cl)Cl (stereo not given) | inactive: 1.36%
8 | Cc1ccc(NP(=O)(Oc2ccccc2)Oc2ccccc2)nc1 | inactive: -3.4%
9 | O=[N+]([O-])c1cc([N+](=O)[O-])c(CCNc2ccccc2)c([N+](=O)[O-])c1 | inactive: -1.19%
10 | COc1ccc(C2=NCC(CBr)S2)cc1 (stereo not given) | inactive: -2.19%
11 | c1cc(-c2nn[nH]n2)ccc1-c1nn[nH]n1 | inactive: -4.19%
12 | CC(C)c1nc(Nc2ccccc2)n(P(=O)(N(C)C)N(C)C)n1 | inactive: -0.102%
13 | CC(C)=N/N=C(\N)N[N+](=O)[O-] | inactive: -4.33%
14 | Nc1ccc([As](=O)(O)c2ccc(N)cc2)cc1 | inactive: -0.511%
15 | C[N+]1=C2C=CC=CC=C2SC12C([N+](=O)[O-])=CC([N+](=O)[O-])=C[C-]2[N+](=O)[O-] (stereo not given) | inactive: 0.833%
16 | Clc1ccc(Cl)c(NC2=NCC(CBr)S2)c1 (stereo not given) | inactive: 0.17%
17 | Cc1ccc(OP(=O)(Nc2nccs2)Oc2ccc(C)cc2)cc1 | inactive: 0.0045%
18 | CN(C(=O)Cc1ccc(Cl)c(Cl)c1)[C@H]1CCCC[C@H]1N1CCCC1 | inactive: -0.049%
19 | Cc1ccc(N/C(=N/P(=O)(N2CCOCC2)N2CCOCC2)N2CCOCC2)cc1 | inactive: -3.2%
20 | NC(=O)c1cc([N+](=O)[O-])cc([N+](=O)[O-])c1N | inactive: -1.86%
21 | O=C(NC(Sc1ccncn1)C(Cl)(Cl)Cl)c1ccccc1 (stereo not given) | inactive: 0.9%
22 | Nc1cc(N)c2nonc2c1[N+](=O)[O-] | inactive: 0.422%
23 | CCn1c(=O)n(C2CCN(CC3CCCCCCC3)C[C@H]2CO)c2ccccc21 (stereo not given in full) | inactive: 2.03%
24 | Cc1ccc(NP(=O)(Oc2ccccc2F)Oc2ccccc2F)nc1 | inactive: -1.13%
25 | CN(C(=O)Cc1ccc(Cl)c(Cl)c1)[C@H]1CCCC[C@@H]1N1CCCC1 | inactive: -3.2%

Row | Compound | activity (quench increase)
26 | O=P(Nc1nc2ccc(Cl)cc2s1)(c1ccccc1)c1ccccc1 | inactive: 4.61%
27 | CN(C)P(=O)(N(C)C)n1c(Nc2ccccc2)nnc1-c1ccccc1 | inactive: -2.23%
28 | CC(=O)Nc1ccc([As](=O)(O)O)cc1 | inactive: 4.64%
29 | O=C(O)c1ccccc1[As](=O)(O)O | inactive: -2.09%
30 | CCCC1OP(N)(=O)OCC1CC (stereo not given) | inactive: -1.04%
31 | Nc1cccc2ccc([As](=O)(O)O)cc12 | inactive: -1.65%
32 | CN(C(=O)Cc1ccccc1)C1CC[C@@]2(CCCO2)C[C@@H]1N1CCCC1 (stereo not given in full) | inactive: 0.977%
33 | O=P1(N(CCCl)CCCl)OCCC2CCCCN21 (stereo not given) | inactive: 1.91%
34 | c1ccc(-c2nn[nH]n2)c(-c2nn[nH]n2)c1 | inactive: -2.42%
35 | Cc1ccc(NP(=O)(Oc2cccc(C)c2)Oc2cccc(C)c2)nc1 | inactive: 1.54%
36 | CCNC(=S)/N=C(\N)N[N+](=O)[O-] | inactive: -0.09%
37 | O=C(NC1CCS(=O)(=O)C1)NP(=S)(Oc1ccccc1)Oc1ccccc1 (stereo not given) | inactive: -0.459%
38 | CC(NC(=O)COC(=O)C(O)(c1ccccc1)c1ccccc1)c1ccccc1 (stereo not given) | inactive: 1.32%
39 | Cc1ccccc1OP(=O)(Nc1ccccn1)Oc1ccccc1C | inactive: -0.076%
40 | O=c1c2cc([N+](=O)[O-])ccc2[nH]c2c([N+](=O)[O-])cc([N+](=O)[O-])cc12 | inactive: -12.7%
41 | CN(C)C(=O)Oc1noc2ccccc12 | inactive: 2.37%
42 | O=C(OC1CN2CCC1CC2)c1ccccc1 (stereo not given) | inactive: -0.829%
43 | Cc1ccc(OP(=O)(Nc2ccccn2)Oc2ccc(C)cc2)cc1 | inactive: -2.59%
44 | CC(C)(C)C(=O)NC(Sc1ccccc1)C(Cl)(Cl)Cl (stereo not given) | inactive: -0.317%
45 | CCc1cc(O)c([N+](=O)[O-])c(C)c1[N+](=O)[O-] | inactive: 2.72%
46 | CCOc1ccc(C2=NCC(CBr)S2)cc1 (stereo not given) | inactive: 1.24%
47 | CC(=O)Nc1ccc([As](=O)(O)O)c(O)c1 | inactive: 1.15%
48 | CC(=O)Nc1ccc(Oc2c([N+](=O)[O-])cc([N+](=O)[O-])cc2[N+](=O)[O-])cc1 | inactive: 0.639%
49 | Cc1ccccc1CN(C)C(=O)COC(=O)C(O)(c1ccccc1)c1ccccc1 | inactive: 2.76%
50 | C[C@H]1OP(=O)(Oc2ccccc2)C[C@@H]2O[C@@H]21 (stereo not given in full) | inactive: 0.383%

Row | Compound | activity (quench increase)
51 | C[C@@H]1C=CCP(=O)(Oc2ccccc2)O1 (stereo not given in full) | inactive: -0.029%
52 | CC(=O)c1ccc(N2CC2c2ccncc2)cc1 (stereo not given) | inactive: -0.258%
53 | N#C/C(=C\c1ccc(N(CCBr)CCBr)cc1)C(N)=O | inactive: -1.22%
54 | COC(=O)C1(C)COP(=O)(NCc2ccccc2)OC1 (stereo not given) | inactive: 4.5%
55 | O=P(Nc1nc2ccccc2s1)(c1ccccc1)c1ccccc1 | inactive: 4.21%
56 | C[C@H]1OP(=O)(Oc2ccccc2)[C@H](O)[C@H](O)[C@H]1N=[N+]=[N-] (stereo not given in full) | inactive: -1.05%
57 | O=P(Nc1ccccn1)(c1ccc(Br)cc1)c1ccc(Br)cc1 | inactive: -2.9%
58 | CN(C)C1(CNC(=O)c2ccc(Cl)c(S(N)(=O)=O)c2)CCCCC1 | inactive: -1.05%
59 | COc1ccc(N)c([N+](=O)[O-])c1[N+](=O)[O-] | inactive: 1.69%
60 | Nc1ccc(CCCCOc2ccccc2)cc1 | inactive: 2.76%
61 | C/C(N)=N\P(=O)(OCc1ccccc1)OCc1ccccc1 | inactive: 1.74%
62 | Nc1ccc([As](=O)(O)c2ccc([N+](=O)[O-])cc2)cc1 | inactive: -0.189%
63 | O=[As](O)(c1ccccc1)c1ccc(O)cc1 | inactive: -1.12%
64 | O=[N+]([O-])c1ncn(CCn2cnc([N+](=O)[O-])n2)n1 | inactive: -1.16%
65 | CC(=O)NC(SC(=S)N(C)C)C(Cl)(Cl)Cl (stereo not given) | inactive: -3.73%
66 | CN(C)C1(CNC(=O)c2ccc(S(C)(=O)=O)cc2)CCCCC1 | inactive: -1.9%
67 | O=C(/C=C/c1ccccc1)OC1CN2CCC1CC2 (stereo not given) | inactive: 2.78%
68 | CCCC1OP(=O)(Nc2ccccc2)OCC1CC (stereo not given) | inactive: -0.614%
69 | CC1CCC(C(C)C)C(OP(=O)(Nc2ccccn2)c2ccccc2)C1 (stereo not given) | inactive: -1.41%
70 | Cc1ccc(C(=O)OC2CN3CCC2CC3)cc1 (stereo not given) | inactive: 1.05%
71 | Nc1cccc([As](=O)(O)c2ccccc2)c1 | inactive: -0.78%
72 | O=[As](O)(c1cccs1)c1cccs1 | inactive: -1.15%
73 | NS(=O)(=O)c1cccc(NC(=O)COC(=O)C(O)(c2ccccc2)c2ccccc2)c1 | inactive: -1.33%
74 | Cc1ccc(S(=O)(=O)N(CCCN)CCCc2c(C)nc(N)[nH]c2=O)cc1 | inactive: 3.17%
75 | O=P1(N(CCCl)CCCl)NCCC(C(F)(F)F)O1 (stereo not given) | inactive: 5.23%

Row | Compound | activity (quench increase)
76 | CC(C)(C)C(=O)NC(Sc1ncccn1)C(Cl)(Cl)Cl (stereo not given) | inactive: 2.99%
77 | CCC1=CC2Cc3nc4ccc(Cl)cc4c(N)c3C(C1)C2 (stereo not given) | inactive: -11%
78 | CCOP(=O)(NC(=NC(C)c1ccccc1)NC(C)c1ccccc1)OCC (stereo not given) | inactive: -2.62%
79 | CCOP(=O)(Nc1ccc(C)cn1)OCC | inactive: -2.41%
80 | CN(CCCl)Cc1cc(Cl)c(NC2=NCCN2)c(Cl)c1 | inactive: 0.668%
81 | CC(C)/C=N\N=C(\N)N[N+](=O)[O-] | inactive: 5.88%
82 | CN(C(=O)Cc1ccc(Cl)c(Cl)c1)[C@@H]1CCCC[C@H]1N1CCCC1 | inactive: 0.917%
83 | CN(C(=O)Cc1ccc(Cl)c(Cl)c1)C1CCCC[C@@H]1N1CCCC1 (stereo not given in full) | inactive: 1.46%
84 | COc1ccccc1CNC(=O)COC(=O)C(O)(c1ccccc1)c1ccccc1 | inactive: 0.507%
85 | O=[As](O)(c1cccc(O)c1)c1cccc(O)c1 | inactive: -1.02%
86 | O=C(OC1CN2CCC1CC2)c1ccc(Cl)cc1 (stereo not given) | inactive: 0.241%
87 | O=[As](O)(O)c1cccnc1 | inactive: 1.57%
88 | COc1cc(C(=O)NCC2(N3CCOCC3)CCCCC2)cc(Cl)c1OC(C)C | inactive: 1.94%
89 | CS(=O)(=O)c1ccc(Cl)c(NC(=O)COC(=O)C(O)(c2ccccc2)c2ccccc2)c1 | inactive: -0.559%
90 | Nc1cccc2c([As](=O)(O)O)cccc12 | inactive: 0.539%
91 | CCCOP(=S)(Nc1nc(N)cc(=O)[nH]1)OCCC | inactive: -2.29%
92 | Nc1ccccc1[As](=O)(O)c1ccccc1 | inactive: -2.45%
93 | O=C(O)COc1ccc([As](=O)(O)O)cc1[N+](=O)[O-] | inactive: -0.05%
94 | CCOP1(=S)c2c(C)nn(CCC#N)c2N=C(c2ccccc2F)N1C (stereo not given) | inactive: 0.632%
95 | O=P(Nc1nccs1)(Oc1ccccc1)Oc1ccccc1 | inactive: 2.91%
96 | N#CCCN(C(=O)COC(=O)C(O)(c1ccccc1)c1ccccc1)c1ccc(F)cc1 | inactive: 0.958%
97 | CN(C(=O)Cc1ccccc1)[C@@H]1CC[C@]2(CCCO2)C[C@H]1N1CCCC1 | inactive: -2.6%
98 | CCOP1(=S)c2c(C)nn(CCC#N)c2N=C(c2ccc(F)cc2)N1C (stereo not given) | inactive: -0.358%
99 | CN(C)C(=O)c1cc([N+](=O)[O-])cc2c1-c1c(cc([N+](=O)[O-])cc1[N+](=O)[O-])C2=O | inactive: -7.35%
100 | CN(C(=O)Cc1ccc(Cl)c(Cl)c1)[C@H]1CC[C@@]2(CCCO2)C[C@@H]1N1CCCC1 | inactive: 6.97%
